# Source: patent publication US20250059218A1, “ENPP1 Inhibitors and Methods of Modulating Immune Response” (The Board of Trustees of the Leland Stanford Junior …, priority 2019, published 2025)
# By UniProt entry, the sequences of proteins in these tests, tags left out. Residues count along the entry.
# UniProt P06802, 85-906 limits assumed: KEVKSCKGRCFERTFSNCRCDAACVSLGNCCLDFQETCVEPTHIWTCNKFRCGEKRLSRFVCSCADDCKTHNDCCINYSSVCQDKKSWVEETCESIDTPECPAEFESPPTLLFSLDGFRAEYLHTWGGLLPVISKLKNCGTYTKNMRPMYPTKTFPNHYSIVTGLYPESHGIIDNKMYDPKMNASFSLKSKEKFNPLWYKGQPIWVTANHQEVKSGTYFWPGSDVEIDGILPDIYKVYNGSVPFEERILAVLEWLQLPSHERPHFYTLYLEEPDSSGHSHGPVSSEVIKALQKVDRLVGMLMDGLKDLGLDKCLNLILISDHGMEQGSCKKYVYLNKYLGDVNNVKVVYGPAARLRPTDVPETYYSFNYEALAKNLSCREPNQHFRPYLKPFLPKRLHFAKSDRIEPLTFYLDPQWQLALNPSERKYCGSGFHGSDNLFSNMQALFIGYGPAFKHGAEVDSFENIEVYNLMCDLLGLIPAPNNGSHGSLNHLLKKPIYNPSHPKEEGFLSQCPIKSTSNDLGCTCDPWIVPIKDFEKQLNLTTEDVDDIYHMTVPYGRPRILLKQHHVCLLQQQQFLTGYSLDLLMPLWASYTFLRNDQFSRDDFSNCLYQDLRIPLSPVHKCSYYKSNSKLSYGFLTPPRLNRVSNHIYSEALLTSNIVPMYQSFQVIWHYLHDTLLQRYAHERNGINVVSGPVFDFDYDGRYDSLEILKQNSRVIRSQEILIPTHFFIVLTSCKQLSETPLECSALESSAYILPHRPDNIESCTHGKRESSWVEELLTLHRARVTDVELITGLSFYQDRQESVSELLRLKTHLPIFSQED
# UniProt P22413, whole entry: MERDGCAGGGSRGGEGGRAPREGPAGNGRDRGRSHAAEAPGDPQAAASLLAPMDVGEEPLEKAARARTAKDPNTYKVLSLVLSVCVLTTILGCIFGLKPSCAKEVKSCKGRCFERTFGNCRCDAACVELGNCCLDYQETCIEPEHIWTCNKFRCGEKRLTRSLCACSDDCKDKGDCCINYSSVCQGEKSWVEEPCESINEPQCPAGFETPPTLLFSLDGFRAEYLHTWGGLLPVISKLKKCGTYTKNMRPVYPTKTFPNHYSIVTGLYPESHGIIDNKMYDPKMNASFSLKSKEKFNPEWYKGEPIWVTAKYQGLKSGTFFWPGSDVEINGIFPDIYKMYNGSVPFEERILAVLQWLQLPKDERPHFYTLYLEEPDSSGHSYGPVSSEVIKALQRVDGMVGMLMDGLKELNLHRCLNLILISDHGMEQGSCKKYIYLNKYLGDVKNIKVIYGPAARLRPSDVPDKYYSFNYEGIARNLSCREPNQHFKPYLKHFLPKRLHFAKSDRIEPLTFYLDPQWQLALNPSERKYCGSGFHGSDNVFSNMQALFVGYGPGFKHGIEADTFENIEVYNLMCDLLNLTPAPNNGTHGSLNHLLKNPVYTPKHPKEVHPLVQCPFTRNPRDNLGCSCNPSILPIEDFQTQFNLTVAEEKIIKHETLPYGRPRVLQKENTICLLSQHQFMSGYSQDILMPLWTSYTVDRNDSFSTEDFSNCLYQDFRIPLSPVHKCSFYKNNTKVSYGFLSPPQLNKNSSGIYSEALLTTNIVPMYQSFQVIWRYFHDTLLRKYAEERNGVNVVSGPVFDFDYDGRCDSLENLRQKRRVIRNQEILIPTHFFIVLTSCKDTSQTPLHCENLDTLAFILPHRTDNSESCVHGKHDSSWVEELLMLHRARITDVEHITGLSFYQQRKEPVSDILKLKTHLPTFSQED
# Tests used:
# purified mouse ENPP1 = purified mouse ENPP1 (Mus musculus (Mouse), UniProt P06802); assay: 32P-cGAMP degradation TLC assay; format: biochemical; conditions: read-out: Ki,app; 32P-cGAMP as substrate, pH 7.5; unit given as M
# [1] = biological target: human ENPP1 transiently expressed in 293T cGAS ENPP1−/− cells (Homo sapiens (Human), UniProt P22413); assay: Extracellular cGAMP in ENPP1-overexpressing 293T cGAS cells (LC-MS/MS); format: cell-based
# [2] = test system: cGAMP export in 293T cGAS ENPP1−/− cells; assay: cGAMP export assay in 293T cGAS ENPP1−/− cells; format: cell-based, human
structure (smiles),measurement,setting,value
COc1cc2ncnc(N3CCC(CCNS(N)(=O)=O)CC3)c2cc1OC,Ki,purified mouse ENPP1,6.4 µM
same,extracellular cGAMP degradation,[1],can inhibit extracellular cGAMP degradation
same,intracellular cGAMP,[2]; 293T cGAS ENPP1−/− cells,elevated intracellular cGAMP
same,cGAMP export,[2]; ENPP1 knockout cells,partially blocked cGAMP export
